This is a selection; strong and weak results do not stand in their true shares. Active and inactive are the calls of the source.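 How the source made its calls: active means percent inhibition above a cutoff equal to the mean of all tested compounds plus 3 SD (cut at about 15% in these data); inactive means the rest.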

Chains of the proteins cited; added tags and fusions are not shown.
UniProt Q9UM07, whole entry, looked up: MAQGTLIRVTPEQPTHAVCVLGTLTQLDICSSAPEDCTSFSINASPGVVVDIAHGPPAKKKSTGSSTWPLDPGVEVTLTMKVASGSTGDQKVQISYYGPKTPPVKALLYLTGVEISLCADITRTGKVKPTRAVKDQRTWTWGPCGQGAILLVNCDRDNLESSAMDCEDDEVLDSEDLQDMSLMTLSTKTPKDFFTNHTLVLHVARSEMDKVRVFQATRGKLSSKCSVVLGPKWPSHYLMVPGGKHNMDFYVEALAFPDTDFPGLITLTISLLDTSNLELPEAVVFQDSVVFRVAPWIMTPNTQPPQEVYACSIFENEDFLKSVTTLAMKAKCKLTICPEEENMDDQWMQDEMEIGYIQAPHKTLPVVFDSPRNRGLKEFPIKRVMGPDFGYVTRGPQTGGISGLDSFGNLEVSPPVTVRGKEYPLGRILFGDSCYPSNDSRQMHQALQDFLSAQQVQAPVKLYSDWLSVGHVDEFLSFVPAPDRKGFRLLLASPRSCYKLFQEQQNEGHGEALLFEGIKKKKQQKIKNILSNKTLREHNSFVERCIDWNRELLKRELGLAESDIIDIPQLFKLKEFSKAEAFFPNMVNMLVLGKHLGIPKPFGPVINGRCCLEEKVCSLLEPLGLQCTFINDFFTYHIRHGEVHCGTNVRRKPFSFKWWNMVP

In this test the target is Protein-arginine deiminase type-4 (Homo sapiens) (UniProt Q9UM07). The test is described as follows: protein arginine deiminase 4 enzyme blockade – biochemical, fluorescence polarization, 1536-well format, primary screen (AID 485272).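 Further: 0% = PAD4 with RCA probe and DMSO and 100% = probe without PAD4.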 The following applies: recombinant PAD4, RCA probe fluorescence polarization; at 6.36 µM; active compounds read high. (In general: In fluorescence polarisation assays a small probe gives low polarisation when free and higher when bound to something large.)
For `Nc1cc(N)c2nonc2c1[N+](=O)[O-]`, the inhibition is inactive: -17.9%. On to `CC(C)CC(=O)NC(Sc1ccc(Cl)cc1)C(Cl)(Cl)Cl` (configuration not stated), for which the inhibition was inactive: -4.74%. The result for `O=P(Nc1nc2ccc(Cl)cc2s1)(c1ccccc1)c1ccccc1` reads inactive: -3.09%. Regarding `CC(=O)Nc1ccc([As](=O)(O)O)cc1`, the inhibition is inactive: -1.74%. Take `O=C(O)c1ccccc1[As](=O)(O)O`: the inhibition was inactive: 13.7%. On to `Cc1cc(SC(NC(=O)c2ccc(F)cc2)C(Cl)(Cl)Cl)ncn1` (configuration not stated), for which the inhibition is inactive: -0.5%. For the molecule `CCOP(=O)(Nc1ccccc1)OCC`, the inhibition is inactive: -0.3%. Consider `CN(C(=O)Cc1ccc(Cl)c(Cl)c1)[C@H]1CCCC[C@@H]1N1CCCC1`, for which the inhibition is inactive: 1.35%. The result for `Cc1ccc(NP(=O)(Oc2ccccc2F)Oc2ccccc2F)nc1` reads inactive: -4.26%; that for `O=[N+]([O-])c1cc([N+](=O)[O-])c(CCN2CCOCC2)c([N+](=O)[O-])c1`, inactive: -8.64%. Take `CCN(N=Nc1nonc1N)c1nonc1N`: the inhibition is inactive: 1.93%. For the molecule `c1ccc(-c2nn[nH]n2)c(-c2nn[nH]n2)c1`, the inhibition is inactive: 1.05%. Next, `CCOC(=O)NC(Sc1ccccc1)C(Cl)(Cl)Cl` (configuration not stated): inactive: -3.56%; `Cc1ccc(NP(=O)(Oc2cccc(C)c2)Oc2cccc(C)c2)nc1`: inactive: -0.01%; `O=C(NC1CCS(=O)(=O)C1)NP(=S)(Oc1ccccc1)Oc1ccccc1` (configuration not stated): inactive: -3.85%. Regarding `CCNC(=S)/N=C(\N)N[N+](=O)[O-]`, the inhibition is inactive: -3.07%. As for `O=C(OC1CN2CCC1CC2)c1ccccc1` (configuration not stated), the inhibition was inactive: -7.02%. For `CCC(=O)N1C2C3N(C(=O)CC)C1C1N(C(=O)CC)C(C(N1C(=O)CC)N3C(=O)CC)N2C(=O)CC`, the inhibition was inactive: -1.31%. Take `COC(=O)c1cc2c(s1)N=C(c1ccccc1)N(C)P2(=O)N1CCOCC1` (configuration not stated): the inhibition is inactive: -1.49%. With `Cc1ccc(OP(=O)(Nc2ccccn2)Oc2ccc(C)cc2)cc1`, the inhibition was inactive: 2.54%. Consider `CC(=O)NC(SC(=S)N(CC(C)C)CC(C)C)C(Cl)(Cl)Cl` (configuration not stated), for which the inhibition is inactive: -3.22%. As to `CC(NC(=O)COC(=O)C(O)(c1ccccc1)c1ccccc1)c1ccccc1` (configuration not stated), the inhibition is inactive: 0.46%. For the molecule `Cc1ccccc1OP(=O)(Nc1ccccn1)Oc1ccccc1C`, the inhibition was inactive: -2.78%.

For `CN(C)C(=O)Oc1noc2ccccc12`, the inhibition was inactive: 0.66%. Next, `O=P1(Nc2nc3ccc(Cl)cc3s2)COc2ccccc2O1` (configuration not stated): inactive: 1.85%; `CCOc1ccc(C2=NCC(CBr)S2)cc1` (configuration not stated): inactive: -0.65%; `CC(C)(C)C(=O)NC(Sc1ccccc1)C(Cl)(Cl)Cl` (configuration not stated): inactive: 0.73%.

For `Cc1ccccc1CN(C)C(=O)COC(=O)C(O)(c1ccccc1)c1ccccc1`, the inhibition is inactive: 1.16%. Take `C[C@H]1OP(=O)(Oc2ccccc2)C[C@@H]2O[C@@H]21` (some centres not stated): the inhibition is inactive: -2.74%.

Take `C[C@@H]1C=CCP(=O)(Oc2ccccc2)O1` (some centres not stated): the inhibition was inactive: -1.89%. Regarding `CC(=O)c1ccc(N2CC2c2ccncc2)cc1` (configuration not stated), the inhibition is inactive: 2.39%.

For the molecule `CC(=O)Nc1ccc([As](=O)(O)O)c(O)c1`, the inhibition was inactive: 2.1%. Next, `CC(=O)Nc1ccc(Oc2c([N+](=O)[O-])cc([N+](=O)[O-])cc2[N+](=O)[O-])cc1`: inactive: -5.93%; `O=P(Nc1nccs1)(c1ccccc1)c1ccccc1`: inactive: 1.03%; `CC(C)C(=O)NC(Sc1ccccc1)C(Cl)(Cl)Cl` (configuration not stated): inactive: 0.06%. Take `c1nnnn1CCn1cnnn1`: the inhibition was inactive: -1.84%. The result for `CN(C)C1(CNC(=O)c2ccc(Cl)c(S(N)(=O)=O)c2)CCCCC1` reads inactive: -11.5%; that for `O=P(Nc1ccccn1)(c1ccc(Br)cc1)c1ccc(Br)cc1`, inactive: -3.42%. For `O=P(Nc1nc2ccccc2s1)(c1ccccc1)c1ccccc1`, the inhibition was inactive: -0.02%. Consider `C[C@H]1OP(=O)(Oc2ccccc2)[C@H](O)[C@H](O)[C@H]1N=[N+]=[N-]` (some centres not stated), for which the inhibition was inactive: 0.8%.

For the molecule `O=[As](O)(c1ccccc1)c1ccc(O)cc1`, the inhibition is inactive: 3.73%. As for `O=[N+]([O-])c1ncn(CCn2cnc([N+](=O)[O-])n2)n1`, the inhibition is inactive: 4.22%. Consider `CC(=O)NC(SC(=S)N(C)C)C(Cl)(Cl)Cl` (configuration not stated), for which the inhibition is inactive: -0.35%. As for `O=[N+]([O-])c1ccc(O)c(/C=N/Nc2ccc([N+](=O)[O-])cc2[N+](=O)[O-])c1`, the inhibition was inactive: -1.52%. On to `O=C(OC1CN2CCC1CC2)c1cccc(Cl)c1` (configuration not stated), for which the inhibition was inactive: 0.73%.

Take `C(Cc1nn[nH]n1)Cc1nn[nH]n1`: the inhibition is inactive: -3.54%. `Nc1ccc([As](=O)(O)c2ccc([N+](=O)[O-])cc2)cc1`: the inhibition is inactive: 2.84%.

Usually inhibition stands for the drop in the measured response relative to a control, in per cent.

Values taken from PubChem BioAssay AID485272 (The Scripps Research Institute Molecular Screening Center, 2010).
